In EP4825844A1, “NAV1.8 INHIBITOR COMPOUND, SALT THEREOF, POLYMORPH THEREOF, AND USE THEREOF” (dated 2026):
Counter-ions that a name gives are not always drawn. Each block holds one molecule with its values, some of them ahead of it.

Experiments:
[1] = system: Rats with Spinal Nerve Ligation; test: Rat spinal nerve ligation neuropathic pain model, Von-Frey mechanical pain threshold; details: before modeling and administration
Description: Male SD rats weighing 180-220 g were anesthetized and placed in a prone position on the surgical table. An incision was made along the spine near the animal's hip bone to separate the fascia and muscle. The L5 transverse process was carefully bitten off with forceps, and the L5 nerve was separated using a glass dissecting needle. The L5 nerve was ligated with a 5-0 ligature. The muscle and skin were sutured, and the area was disinfected with iodophor. Fourteen days after modeling, the animals were divided into different groups (10 animals per group) and orally administered different compounds via gavage. The mechanical pain threshold of the animals was measured using Von-Frey filaments at different time points after administration. Specific dosing regimens and detection time points are detailed in Table B-3 below.
(§1) Mechanical pain threshold detection method: The test animal was continuously stimulated on the plantar surface of the hind paw to be tested with a Von-Frey filament until the filament bent, and the paw withdrawal response of the animal was observed. The test animal was stimulated sequentially with filaments of increasing gram force, from the smallest to the largest. […] The first filament gram force that elicited 3 or more positive responses was recorded as the pain threshold for that animal (each animal was tested three times, and the average value was taken). […]

[2] = system: Incisional Pain Model Rats; test: Rat incisional pain model, Von Frey mechanical pain threshold; details: before modeling and administration
Description: Male SD rats weighing 200-250 g were anesthetized and fixed in a prone position. The plantar surface of the lateral hind paw was extended upward, and the toes were fixed with surgical tape, followed by disinfection. A longitudinal incision of approximately 1 cm was made in the skin and fascia using a scalpel, starting 0.5 cm from the heel towards the toes on the animal's plantar surface. After lifting the flexor digitorum brevis muscle with surgical curved forceps, a longitudinal incision was made in the belly of the muscle using a scalpel, without completely transecting the muscle. The skin was sutured and disinfected. On the second day after modeling, the animals were divided into different groups, with 8 animals per group, and were orally administered different compounds by gavage. The mechanical pain threshold of the animals was measured using Von Frey filaments at different time points after administration. […]
as §1, with “observed.” for “observed. The test animal was stimulated sequentially with filaments of increasing gram force, from the smallest to the largest.”

[3] = Solid state stability (XRPD and HPLC); details: for Purity (area%): HPLC; for Relative to starting (%): HPLC purity; for Crystal form: XRPD after storage, merged cell for 25 °C/60% RH/open 1 week, 40 °C/75% RH/open 1 week, 80 °C/sealed 1 day
Protocol: (§2) In the study, the purity test, dynamic solubility test, and stability test were performed using a Waters H-Class ultra performance liquid chromatography system, and the ionic salt molar ratio test was performed using ion chromatography. Table A-4. High performance liquid chromatography test conditions
Free crystal form A and the maleate salt crystal form A were placed at 80 °C/closed for one day and at 25 °C/60% RH and 40 °C/75% RH/open for one week, respectively. The physical and chemical stability of the samples were tested by XRPD and HPLC. […] Table2-6 Summary of Solid State Stability Evaluation

[4] = Hygroscopicity by dynamic vapor sorption (DVS); details: for moisture adsorption: 25 °C/80% RH
Protocol: Dynamic vapor sorption (DVS) curves were acquired on a DVS IntrInsic from Surface Measurement Systems (SMS). The relative humidity at 25 °C was corrected with the deliquescence points of LiCl, Mg(NO3)2, and KCl. Table A-3. DVS test parameters
Hygroscopicity evaluation of free crystal form A and crystal form A of maleate was performed using a dynamic vapor sorption (DVS) instrument. The percentage changes in mass of the samples when the humidity changed (0% RH to 95% RH) at a constant temperature of 25 °C were collected.

[5] = Dynamic solubility at 37 °C in H2O, SGF, FaSSIF and FeSSIF; details: for S: solubility: feeding concentration 10 mg/mL
Protocol: as §2
100 mg of NaCl and 50 mg of Triton X-100 were weighed into a 50 mL volumetric flask and then completely dissolved by addition of purified water. 816 µL of 1 M hydrochloric acid was added, and the pH was adjusted to 1.8 with 1 M hydrochloric acid or 1 M NaOH solution. The mixed solution was brought to the volume by addition of purified water.
340 mg of anhydrous NaH2PO4 and 620 mg of NaCl were weighed and added into a 100 mL volumetric flask, and then completely dissolved by addition of purified water. 55.44 µL of a 50% NaOH solution was then added, and the pH was adjusted to 6.5 with 1 M hydrochloric acid or 1 M NaOH solution. The mixed solution was brought to the volume by addition of purified water. Subsequently, 110 mg of SIF powder was weighed and added into a 50 mL volumetric flask and completely dissolved in the solution described above, and the mixed solution was brought to the volume.
0.82 mL of glacial acetic acid and 1.18 g of NaCl were added to a 100 mL volumetric flask and completely dissolved by addition of purified water. 528 µL of a 50% NaOH solution was then added, the pH was adjusted to 5.0 with 1 M hydrochloric acid or 1 M NaOH solution, and the mixed solution was brought to the volume by addition of purified water. Subsequently, 560 mg of SIF powder was weighed into a 50 mL volumetric flask and completely dissolved in the solution described above, and the mixed solution was brought to the volume.
Solids at a feeding concentration of 10 mg/mL (calculated based on free crystal form) were rotationally mixed with corresponding vehicles at 37 °C. The solubility of each sample in H2O, SGF, FaSSIF, and FeSSIF was determined at different time points (1 h, 2 h, 4 h, and 24 h). After sampling at each time point, the samples were centrifuged (at 10000 rpm) and filtered (through 0.45 µm PTFE), the HPLC concentrations and pH values of the filtrates were determined, and the centrifuged solid samples were subjected to XRPD analysis. […] Table 2-5. Summary of dynamic solubility test results at 37 °C

Compound: CC(C)C[C@H](CN)CC(=O)O
Mechanical Pain Threshold (Mean±SD) Baseline Before Modeling ([1]; 30mpk group): 13.6 ± 2.7 g
Mechanical Pain Threshold (Mean±SD) Baseline Before Modeling ([2]; 30mpk group): 12.7 ± 1.7 g

Compound: O=C(Nc1cnc[n+]([O-])c1)c1cc(Cl)c(Cl)cc1Oc1ccc(OC(F)(F)F)cc1
Mechanical Pain Threshold (Mean±SD) Baseline Before Modeling ([1]; 100mpk group): 13.6 ± 1.7 g
Mechanical Pain Threshold (Mean±SD) Baseline Before Modeling ([2]; 100mpk group): 12.6 ± 1.7 g

Purity (area%) ([3]; 25 °C/60% RH/open, 1 week): 99.90 area%
Relative to starting (%) ([3]; 25 °C/60% RH/open, 1 week): 100.0%
Purity (area%) ([3]; 40 °C/75% RH/open, 1 week): 99.95 area%
Relative to starting (%) ([3]; 40 °C/75% RH/open, 1 week): 100.0%
Purity (area%) ([3]; 80 °C/sealed, 1 day): 99.93 area%
Relative to starting (%) ([3]; 80 °C/sealed, 1 day): 100.0%
Crystal form [3]: C rystal form A of maleate
moisture adsorption [4]: 0.224%
Compound: O=C(Nc1cnc[n+]([O-])c1)c1cc(Cl)c(Cl)cc1Oc1ccc(OC(F)(F)F)cc1 [Crystal form A of maleate]

S: solubility ([5]; FaSSIF, 1 h): 13 µg/mL
S: solubility ([5]; FaSSIF, 2 h): 14 µg/mL
S: solubility ([5]; FaSSIF, 4 h): 15 µg/mL
S: solubility ([5]; FaSSIF, 24 h): 15 µg/mL
S: solubility ([5]; FeSSIF, 1 h): 51 µg/mL
S: solubility ([5]; FeSSIF, 2 h): 53 µg/mL
S: solubility ([5]; FeSSIF, 4 h): 55 µg/mL
S: solubility ([5]; FeSSIF, 24 h): 59 µg/mL
S: solubility ([5]; H2O, 1 h): 2 µg/mL
S: solubility ([5]; H2O, 2 h): 1 µg/mL
S: solubility ([5]; H2O, 4 h): 2 µg/mL
S: solubility ([5]; H2O, 24 h): 2 µg/mL
S: solubility ([5]; SGF, 1 h): 12 µg/mL
S: solubility ([5]; SGF, 2 h): 12 µg/mL
S: solubility ([5]; SGF, 4 h): 13 µg/mL
S: solubility ([5]; SGF, 24 h): 13 µg/mL
crystal form after the dynamic solubility test ([5]; XRPD of centrifuged solids, H2O, SGF, FaSSIF, FeSSIF): remained unchanged
Purity (area%) ([3]; 25 °C/60% RH/open, 1 week): 99.35 area%
Relative to starting (%) ([3]; 25 °C/60% RH/open, 1 week): 100.0%
Purity (area%) ([3]; 40 °C/75% RH/open, 1 week): 99.37 area%
Relative to starting (%) ([3]; 40 °C/75% RH/open, 1 week): 100.0%
Purity (area%) ([3]; 80 °C/sealed, 1 day): 99.45 area%
Relative to starting (%) ([3]; 80 °C/sealed, 1 day): 100.1%
Crystal form [3]: Free Crystal Form A
hygroscopicity ([4]; 25 °C, 0% RH to 95% RH): almost no hygroscopicity
moisture adsorption [4]: 0.1698%
Compound: O=C(Nc1cnc[n+]([O-])c1)c1cc(Cl)c(Cl)cc1Oc1ccc(OC(F)(F)F)cc1 [Free Crystal Form A]
